Apparent affinities of Ab-95 variants for a coronavirus HR2 peptide

Values reported by Engelhart et al. 2022, doi:10.1038/s41597-022-01779-4 (FLAb copy).

Target: peptide PDVDLGDISGINAS, taken from heptad repeat 2 (HR2) of SARS-CoV-2 spike.

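The library (AAYL52) carries one to three amino acid substitutions per variant, with no insertions or deletions. The assay is AlphaSeq: two haploid yeast populations carry antibody and antigen on their surface. Mating (16 h, 30 °C) was followed by selection of diploids and sequencing of their barcodes. Read counts were normalised to the haploid input and turned into Kd by a linear fit to BCL2-family pairs of known affinity, for each replicate. Each pool was mated in three replicate cultures.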

The variants keep the heavy chain, the linker and the frameworks of Ab-95 (scFv order VH, three GGGGS repeats, VL).
VH: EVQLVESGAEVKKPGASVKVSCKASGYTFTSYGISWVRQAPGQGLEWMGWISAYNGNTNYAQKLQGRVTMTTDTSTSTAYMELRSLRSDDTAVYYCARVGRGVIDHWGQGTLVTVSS
VL: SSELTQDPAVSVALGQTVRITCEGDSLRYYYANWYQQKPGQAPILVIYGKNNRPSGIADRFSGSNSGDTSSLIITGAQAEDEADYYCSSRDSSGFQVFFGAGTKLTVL

The parent's light chain CDRs are EGDSLRYYYAN, GKNNRPS, SSRDSSGFQVF; each variant's own CDRs replace them letter for letter.
Numbers give log10(Kd / nM), so 0 is 1 nM and 3 is 1 µM. Smaller is tighter.
Averages over replicates are reported, and they cover detected replicates only.
"nd" marks a missing value. The strain was present, yet no cells mated with the target were sequenced in any replicate, which points to weak or no binding.
Empty control strains, which show no peptide, gave a signal in 28% of pairings with library AAYL52; the median was 3.91 and 95% of these signals were weaker than 2.90. No background was subtracted.

mean, log10 nM | replicates with signal | CDR-L1 | CDR-L2 | CDR-L3
2.87 | 3/3 | EGDSLRYYYAN | GKNNRSS | SSRDSIGNQVF
4.24 | 3/3 | EGDSLNYYYDN | GKNNRPS | SVRDSSGFQVF
4.95 | 2/3 | ENDSYRYYYAN | GKNNRPW | SSRDSSGFQVF
3.80 | 3/3 | EGDSLRNYYAN | GKNARPS | SSRDSSGFQGF
4.08 | 2/3 | EGDGLRYYYAN | GKHNRPS | SSRDSSGFQVQ
3.35 | 2/3 | IGDSLRYFYAN | GKNFRPS | SSRDSSGFQVF
nd | 0/3 | ECDSLVYYYAN | GKNNRPS | SFRDSSGFQVF
4.00 | 2/3 | EGDSLRYYYAN | WKNNNPS | SSRDSSGFQDF
2.98 | 3/3 | EGDSLRYYYAN | GKNNIPS | SSRDSSRFQVS
3.32 | 1/3 | EGDSLRYYYAN | GKYNRPS | SSRDSSGVWVF
2.94 | 1/3 | EGDSLRYYYAN | GKNNCPS | SSRDSSGGQFF
4.10 | 1/3 | EGDSLRYYYAM | GKNNIPS | SSTDSSGFQVF
nd | 0/3 | EGDSLRYYYAN | RKNNRAS | SLRDSSGFQVF
nd | 0/3 | EGDSLEYYYEN | GKNNHPS | SSRDSSGFQVF
4.98 | 2/3 | EGDSLRYYYAN | GINNRPS | SSYDSSGFQVF
nd | 0/3 | EGDSTDYYYAN | GKNNRPS | SQRDSSGFQVF
3.79 | 1/3 | GGDSLRYYYAN | GKNNRPS | SSRWSSGFEVF
2.89 | 3/3 | GGDSLQYYIAN | GKNNRPS | SSRDSSGFQVF
4.14 | 2/3 | EGDSLIYYYLN | GKNNRPS | SSRTSSGFQVF
3.71 | 1/3 | EGDSLRVYYAN | GFNNRPS | SSRHSSGFQVF
2.81 | 2/3 | EGDSLRPYVAN | GKNNRPS | SSRDSQGFQVF
1.01 | 3/3 | EGDSLRYGYAN | GKANRPS | SSRDVSGFQVF
2.63 | 3/3 | EVDSLRYVYAN | GKNIRPS | SSRDSSGFQVF
nd | 0/3 | VGDSLRYYYAN | GKNNRKS | SSRDSSYFQVF
2.88 | 3/3 | EGDSLRYTYAN | GKNNRAS | YSRDSSGFQVF
1.08 | 3/3 | EGDSLRYGYAN | GKNNRPS | SSRTSSGFQVF
4.46 | 1/3 | EGDSLRYYYAT | GKNNRPS | SSRDHSGFQVP
4.31 | 1/3 | EGDSKRYYYAN | GKNNRPS | SMRDSSGFQSF
nd | 0/3 | EEDSLRYYYAS | GKNNRPS | SSRDSSGFQRF
2.42 | 3/3 | EGDSLRYYYAN | GKNFRPS | SSRDWSGFQVF
nd | 0/3 | EGDSLRYYYFN | GKNYRPS | SSRDSSGFQDF
2.81 | 3/3 | EGDSLSYYYAN | GKNNRAS | SSRDSSGTQVF
4.08 | 1/3 | EGDSLRYYYAN | MKNNRPT | SSRDSSGFQDF
3.32 | 1/3 | EFDSLRYYYAN | GKNYRPS | SSRDSSKFQVF
1.16 | 3/3 | EGDSLRYQYAN | GKNNRPS | SSRDSSGFQHF
4.85 | 2/3 | EGDSLRYYYAN | GKWNRPS | SSRPWSGFQVF
4.06 | 3/3 | EGDSLYYFYAN | GKNNFPS | SSRDSSGFQVF
3.87 | 3/3 | EGQSLRYYYAN | GKNNRPS | SMRDSTGFQVF
2.92 | 3/3 | EGDSLRYYYAN | GQNNRPS | VSRDSSGFQYF
4.30 | 1/3 | AVDSLRYYYAN | GKNNYPS | SSRDSSGFQVF
2.60 | 3/3 | EGDSVRYYAAN | GKNNRPC | SSRDSSGFQVF
nd | 0/3 | EGDSLRYYYAN | GKCNRPS | SSRCSSGFQVF
3.06 | 3/3 | EGESLRYYYAN | GKNNRPP | SSRDSSGFQEF
3.60 | 3/3 | EGDSLRYYYHN | GKNNKPS | SSRDSSGEQVF
2.98 | 3/3 | EGDSLRYYYAN | GHNNRPS | SSRDSSGLQPF
4.30 | 2/3 | EGDSLRYYYLN | GKNNRPS | SSRDSSGVQVA
4.13 | 3/3 | EGDFLRYYYAN | GKNNRPS | SSRDSLGFDVF
4.29 | 1/3 | EGDSRRYYYAN | GQNTRPS | SSRDSSGFQVF
3.26 | 3/3 | EGDSLRYYYNN | GKNNRPS | SSRDSSMFPVF

A selection of 7 entries from above:

CDR-L1,CDR-L2,CDR-L3,"mean, log10 nM",replicates with signal
EGDSLRYGYAN,GKNNRPS,SSRTSSGFQVF,1.08,3/3
EGESLRYYYAN,GKNNRPP,SSRDSSGFQEF,3.06,3/3
EGDSLRYQYAN,GKNNRPS,SSRDSSGFQHF,1.16,3/3
EGDSLRYYYAN,RKNNRAS,SLRDSSGFQVF,nd,0/3
EGDSLRYTYAN,GKNNRAS,YSRDSSGFQVF,2.88,3/3
EGDSLRYYYAN,GKCNRPS,SSRCSSGFQVF,nd,0/3
EGDSLRYYYLN,GKNNRPS,SSRDSSGVQVA,4.30,2/3